# According to ChEMBL document CHEMBL2380222, “Arylsulfonamide pyrimidines as VLA-4 antagonists” (Bioorg Med Chem Lett, 2013):
# Target: T1, Integrin alpha-4/beta-7 (Homo sapiens, UniProt P13612+P26010)
# T1 sequence (P13612 whole entry): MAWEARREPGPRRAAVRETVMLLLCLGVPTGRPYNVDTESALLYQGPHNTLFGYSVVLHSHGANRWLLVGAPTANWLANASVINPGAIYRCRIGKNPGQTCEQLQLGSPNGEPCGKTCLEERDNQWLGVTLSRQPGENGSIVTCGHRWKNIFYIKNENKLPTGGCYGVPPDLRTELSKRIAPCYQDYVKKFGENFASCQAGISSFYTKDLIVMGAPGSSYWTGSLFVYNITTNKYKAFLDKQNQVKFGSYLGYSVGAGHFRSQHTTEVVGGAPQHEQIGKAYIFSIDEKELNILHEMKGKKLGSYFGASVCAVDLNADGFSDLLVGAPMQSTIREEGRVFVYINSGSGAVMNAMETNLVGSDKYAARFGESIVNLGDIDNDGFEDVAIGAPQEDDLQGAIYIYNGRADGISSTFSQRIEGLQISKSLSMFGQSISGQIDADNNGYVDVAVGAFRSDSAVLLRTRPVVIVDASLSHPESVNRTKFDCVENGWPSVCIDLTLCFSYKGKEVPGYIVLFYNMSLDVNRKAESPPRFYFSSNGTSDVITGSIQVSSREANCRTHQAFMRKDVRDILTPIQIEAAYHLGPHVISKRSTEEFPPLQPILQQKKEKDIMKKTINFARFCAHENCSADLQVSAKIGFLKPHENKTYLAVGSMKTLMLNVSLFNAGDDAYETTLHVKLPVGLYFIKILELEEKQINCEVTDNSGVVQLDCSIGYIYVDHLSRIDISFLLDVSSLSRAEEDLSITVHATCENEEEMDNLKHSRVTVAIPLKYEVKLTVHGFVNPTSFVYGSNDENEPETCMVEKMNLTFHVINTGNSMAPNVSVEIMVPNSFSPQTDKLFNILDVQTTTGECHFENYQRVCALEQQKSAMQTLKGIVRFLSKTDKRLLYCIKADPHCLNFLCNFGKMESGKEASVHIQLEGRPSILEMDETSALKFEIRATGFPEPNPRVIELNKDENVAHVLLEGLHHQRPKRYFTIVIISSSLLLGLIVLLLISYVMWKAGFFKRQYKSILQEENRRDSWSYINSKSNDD
# T1 sequence (P26010 whole entry): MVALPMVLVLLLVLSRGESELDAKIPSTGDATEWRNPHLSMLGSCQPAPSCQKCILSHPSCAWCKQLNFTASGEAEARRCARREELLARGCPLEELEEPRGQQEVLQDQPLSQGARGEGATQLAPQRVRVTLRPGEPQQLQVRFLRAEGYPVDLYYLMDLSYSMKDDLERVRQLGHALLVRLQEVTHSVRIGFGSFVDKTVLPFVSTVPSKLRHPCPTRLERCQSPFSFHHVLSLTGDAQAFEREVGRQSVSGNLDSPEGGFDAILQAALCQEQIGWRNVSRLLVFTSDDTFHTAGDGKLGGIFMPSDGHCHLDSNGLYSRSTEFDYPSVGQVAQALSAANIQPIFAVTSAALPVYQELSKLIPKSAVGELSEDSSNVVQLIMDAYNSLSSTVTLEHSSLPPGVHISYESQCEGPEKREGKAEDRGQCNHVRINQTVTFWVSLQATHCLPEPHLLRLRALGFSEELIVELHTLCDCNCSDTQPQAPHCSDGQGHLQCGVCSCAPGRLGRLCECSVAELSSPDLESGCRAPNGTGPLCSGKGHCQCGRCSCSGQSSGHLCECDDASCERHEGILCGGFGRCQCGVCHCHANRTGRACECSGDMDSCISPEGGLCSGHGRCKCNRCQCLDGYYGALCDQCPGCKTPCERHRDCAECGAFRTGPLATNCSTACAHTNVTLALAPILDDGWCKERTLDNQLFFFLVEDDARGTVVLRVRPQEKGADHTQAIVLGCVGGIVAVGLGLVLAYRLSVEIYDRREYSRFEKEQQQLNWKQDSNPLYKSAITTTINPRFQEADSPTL
# Experiment: Inhibition of integrin alpha4beta7 (unknown origin) binding to MadCAM in human 8866 cells after 30 mins by fibronectin mediated cell adhesion assay
# Format: cell-based
structure (smiles),measurement,value
C#CCN(c1cnc(N(CC)CC)nc1N[C@@H](Cc1ccc(OC(=O)N2CCCC2)cc1)C(=O)O)S(=O)(=O)c1ccc(F)cc1,IC50,7.24 µM
